What was measured:
[1] = QCM Herceptin concentration in breast cancer patient serum; format: in vivo, human; conditions: patient #3, metastatic ER PR Her2/neu positive, after infusion; C = (ΔF +1.0022) ÷ 0.9997 × 10
[2] = AFM of Herceptin on CH-19 peptide SAM on Au; format: physicochemical; conditions: AFM in PBS buffer, after 1 hour exposure to CH-19 SAM

Substance: Herceptin: humanized MAb binding extracellular domain IV segment of HER2
- Tested C of Herceptin in undiluted serum [1]: 193.18 µg/mL
- average height of adsorbed Herceptin particles [2]: 0.1 nm

From publication PMC3234294 (Analytical chemistry, 2011)
